Literature values as cited in article PMC12067741, “Inhibition of SOD1 trimerization is a novel drug target for ALS disease” (Translational Neurodegeneration, 2025).

Tested on: ALS
Settings: cited from earlier work

## Nc1nc2ccc(OC(F)(F)F)cc2s1 [riluzole]
  efficacy on survival rate: no efficacy on survival rate
